The record followed here is ChEMBL document CHEMBL4619721, “Design, synthesis & biological evaluation of ferulic acid-based small molecule inhibitors against tumor-associated carbonic anhydrase IX” (Bioorg Med Chem, 2020).

The species named for test [1] is Homo sapiens. In words: Selectivity index, ratio of IC50 for human carbonic anhydrase 2 using p-nitrophenyl acetate as substrate to IC50 for human carbonic anhydrase 9 using p-nitrophenyl acetate as substrate.
Test [2] addresses T1, Carbonic anhydrase 9 (Homo sapiens, UniProt Q16790).
The target in test [3] is T1, Carbonic anhydrase 9. This is another data set of the same source.
For test [4], the species on record is Homo sapiens. In words: Selectivity index, ratio of IC50 for human carbonic anhydrase 2 using p-nitrophenyl acetate as substrate to IC50 for human carbonic anhydrase 5A using p-nitrophenyl acetate as substrate by.

Each structure is given as a SMILES string.

Turning to `COc1cc(/C=C/C(=O)O)ccc1OCc1cn(-c2cccc([N+](=O)[O-])c2)nn1`, the Ratio IC50 is 83 in the test filed under Homo sapiens [1] and 1.8 in the test listed under Homo sapiens [4]. Besides, at Carbonic anhydrase 9 [2], the Ka was found to be 2.8 ×10⁸ /M. The deltaH at Carbonic anhydrase 9 [3] is -4.14 ×10⁴ cal/mol.
